Source: patent US10214536B2, “Amlexanox analogs” (The Regents of the University of Michigan, priority 2016, dated 2019)
pIC50: −log10 of the molar value.

Sequences of proteins named here, by UniProt entry; tags and fusion partners are left off. Residues count along the entry.
UniProt Q9UHD2, 1-657: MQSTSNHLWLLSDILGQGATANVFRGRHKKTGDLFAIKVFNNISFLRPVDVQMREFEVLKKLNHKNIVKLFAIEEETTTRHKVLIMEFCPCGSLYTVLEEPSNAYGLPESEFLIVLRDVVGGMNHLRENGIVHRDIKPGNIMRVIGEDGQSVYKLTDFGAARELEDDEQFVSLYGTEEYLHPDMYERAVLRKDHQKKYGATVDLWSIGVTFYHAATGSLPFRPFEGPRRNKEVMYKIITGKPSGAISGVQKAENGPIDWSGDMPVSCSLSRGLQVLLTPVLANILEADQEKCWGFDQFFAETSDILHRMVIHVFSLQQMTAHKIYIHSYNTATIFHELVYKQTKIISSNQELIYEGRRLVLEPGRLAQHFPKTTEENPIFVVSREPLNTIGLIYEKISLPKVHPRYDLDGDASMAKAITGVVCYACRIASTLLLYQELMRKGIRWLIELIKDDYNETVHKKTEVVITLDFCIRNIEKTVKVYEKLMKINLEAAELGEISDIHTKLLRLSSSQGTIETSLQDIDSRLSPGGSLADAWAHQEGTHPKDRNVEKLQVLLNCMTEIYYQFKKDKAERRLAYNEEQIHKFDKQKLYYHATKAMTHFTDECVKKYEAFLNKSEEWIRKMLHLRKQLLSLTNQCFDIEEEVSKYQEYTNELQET

Target: TBK1 (residues 1-657) (Homo sapiens (Human), UniProt Q9UHD2)
Experiment: TBK1 dose-response kinase assay
Format: biochemical
Settings: eight inhibitor concentrations from 400 μM or 40 μM to 0 μM; hill slope constrained to −1

Nc1nc2oc3ccc(C4=CCCCC4)cc3c(=O)c2cc1-c1nnn[nH]1 [Compound 69, 2-Amino-7-(cyclohex-1-en-1-yl)-3-(1H-tetrazol-5-yl)-5H-chromeno[2,3-b]132yridine-5-one]
pIC50: 6.49
